From patent US9579406B2, “Phospholipid ether analogs as agents for detecting and locating cancer, and methods thereof” (Cellectar, Inc., priority 2004, dated 2017)
“Also recorded” adds a separate entry of the source.

Columns and labels:
[1] = test system: xenograft and spontaneous tumor models; assay type: in vivo; conditions: radioiodinated NM404
[2] = test system: non-small cell lung cancer; experiment: Planar gamma-camera scintigraphy with 131I-NM-404 in NSCLC patients; conditions: human, in vivo
[3] = test system: human PC-3 prostate tumor xenografts; experiment: Scintigraphy and tissue distribution in SCID mice bearing human PC-3 prostate tumor xenografts; assay type: in vivo; conditions: 3 days after injection
Text: Gamma camera scintigraphy images shown in FIG. 19 directly compare the tumor uptake and body clearance of second generation analog ^125I-NM-404 (6) versus its shorter chain, first generation predecessor, ^125I-NM-324 (2) at 1, 2, and 4 days post administration in immune-compromised SCID mice bearing human PC-3 prostate tumor xenografts.
Extensive quantitative tissue distribution results obtained at 1, 3, 5, and 8 days following administration of radioiodinated NM-404 in this model indicated rapid elimination of radioactivity from all normal tissues over the 8 day evaluation period. Tumor uptake, however, continued to increase up until day 5 when it reached 18% injected dose per gram of tumor. […] Tumor to background tissue ratios exceeded 4, 6.8, 23, and 9 in blood, liver, muscle, and prostate, respectively, 3 days after injection and continued to improve at 5 and 8 days. Again, although thyroid levels ranged from 26 to 54% injected dose per gram of tissue, these levels are actually quite low and represent an extremely small percentage of the injected dose when the exceedingly small mass of the organ is considered and the data are presented on a percent administered dose per organ basis.

[4] = MIRDOSE radiation dose estimates for the adult female; parameters: species or system human (from female rat biodistribution data)
Description: Dosimetry estimation regarding I-125-NM404 for an adult female patients were calculated based on SPECT imaging data using female non-tumor bearing rats following administration of I-131-NM404. The results are listed below:
The dosimetry data were calculated from SPECT imaging in rats using I-131-NM404 and then converted to I-125-NM404. The adrenal gland seems to be the dose-limiting or critical organ for radiation exposure. In the SPECT imaging experiments the thyroids of rats were unblocked. Thus, the thyroid calculations should be evaluated with caution.

C6 glioma = experiment: Tissue distribution in C6 glioma tumor-bearing rats; assay type: in vivo
Description: The inventors evaluated the imaging characteristics of NM404 in C6 glioma (3-5 mm in diameter) tumor-bearing and sham-operated rats. Tissue distribution analysis was performed with ^125I-NM404 at 24 and 48 hours after injection, and a separate group of animals subjected to microPET scanning at various times following injection of ^124I-NM404. Biodistribution analysis indicated minimal NM404 radioactivity in normal brain tissue, however, tumor/brain ratios (% injected dose/g) were 10.6, and 12.0 at 24, 48 hours, respectively. (FIG. 15) NM404 tumor uptake was corroborated by histology.

C[N+](C)(C)CCOP(=O)([O-])OCCCCCCCCCCCCCCCCCCc1ccc(I)cc1 [NM-404, 18-(4-iodophenyl)-octadecylphosphocholine]
tumor models with tumor selectivity / selective retention [1]: 27/27 | liver and abdominal radioactivity levels relative to NM-324 [2]: much lower; also recorded: significantly lower liver, kidney and abdominal background radioactivity levels | tumor to background tissue ratio, blood [3]: exceeded 4 | tumor to background tissue ratio, liver [3]: > 6.8 | tumor to background tissue ratio, muscle [3]: > 23 | tumor to background tissue ratio, prostate [3]: > 9

C[N+](C)(C)CCOP(=O)([O-])OCCCCCCCCCCCCCCCCCCc1ccc([125I])cc1 [Compound I-125-NM404]
RESIDENCE TIME ([4]; Adrenals): 0.0899 h | RESIDENCE TIME ([4]; Heart Wall): 0.654 h | RESIDENCE TIME ([4]; Kidneys): 1.22 h | RESIDENCE TIME ([4]; Liver): 5.71 h | RESIDENCE TIME ([4]; Lungs): 4.5 h | RESIDENCE TIME ([4]; Muscle): 37.8 h | RESIDENCE TIME ([4]; Ovaries): 0.0395 h | RESIDENCE TIME ([4]; Red Marrow): 3.83 h | RESIDENCE TIME ([4]; Remainder): 18.3 h | RESIDENCE TIME ([4]; Small Intestine): 4.68 h | RESIDENCE TIME ([4]; Spleen): 0.629 h | RESIDENCE TIME ([4]; Thyroid): 0.444 h | RESIDENCE TIME ([4]; Urinary Bl Cont): 0.233 h | RESIDENCE TIME ([4]; Uterus): 0.334 h | tumor/brain ratio (% injected dose/g) (C6 glioma; 24 hours): 10.6 | tumor/brain ratio (% injected dose/g) (C6 glioma; 48 hours): 12.0
